The source of these data is US20180360972A1, “THERAPEUTIC COMPOUNDS” (REGENTS OF THE UNIVERSITY OF MINNESOTA, priority 2017, published 2018).

Amino acid sequences for entries named in this document (tags omitted).
UniProt P32245, whole entry: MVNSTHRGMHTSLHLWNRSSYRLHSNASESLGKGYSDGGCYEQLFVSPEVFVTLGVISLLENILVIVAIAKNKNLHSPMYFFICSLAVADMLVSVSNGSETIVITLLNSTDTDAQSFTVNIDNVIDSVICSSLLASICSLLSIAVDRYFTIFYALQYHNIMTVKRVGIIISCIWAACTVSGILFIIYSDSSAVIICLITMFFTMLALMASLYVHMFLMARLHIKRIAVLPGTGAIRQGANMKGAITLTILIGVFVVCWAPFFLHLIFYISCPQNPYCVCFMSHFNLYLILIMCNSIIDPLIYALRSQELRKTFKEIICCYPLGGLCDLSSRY

In assay [1] the target is T1, hMC4R (Homo sapiens, UniProt P32245). The assay can be described thus: PRESTO-Tango β-arrestin recruitment assay. In kind it is cell-based. More on the design: Flag; expressed in transfected cells. Conditions: relative to NDP-MSH control; up to 10 μM.
Assay [2] addresses T1, hMC4R. As to conditions: 1 μM; not significant; Nickolls et al. 2006; cited from earlier work.

Ac-His-DPhe-Arg-Trp-NH2 [CJL-1-14]: the “β-arrestin recruitment efficacy (in words)” value in assay [1] is reported as “maximal β-arrestin recruitment”.
In the case of α-MSH, the “decrease of mean BRET signal compared to basal” value in assay [2] is listed as “approximately 20%”.
